Data: ChEMBL document CHEMBL3272324, “Studies on antitumor agents, 2. Syntheses and antitumor activities of 1-(tetrahydro-2-furanyl)-5-fluorouracil and 1,3-bis(tetrahydro-2-furanyl)-5-fluorouracil” (J Med Chem, 1978)

Columns and labels:
Assay type in all cases: organism-based
Settings in all cases: in vivo
[1] = Toxicity in po dosed ddY mouse after 2 weeks by up and down method
[2] = Toxicity in po dosed ddY mouse after 3 days by up and down method
[3] = Toxicity in po dosed ddY mouse after 1 week by up and down method

In the case of O=c1[nH]c(=O)n(C2CCCO2)cc1F (stereo not drawn) [TEGAFUR], the LD50 at 336 h [1] is reported as 820 mg/kg, the LD50 at 72 h [2] is reported as 900 mg/kg and the LD50 at 168 h [3] is reported as 860 mg/kg.
